Reference: paper doi:10.1101/2025.04.10.648262, “Time-resolved phenotyping at subcellular resolution reveals shared principles and key trade-offs across antimicrobial peptide activities” (bioRxiv, 2026)

Test system: E. coli (MG1655)
Type: cell-based, Escherichia coli
Conditions: E. coli MG1655, M9gluCAAT, 37°C, 20 h, inoculum ~250 cells/mL; max growth rate < 0.2 log(OD)/h; mode across three biological replicates with two technical replicates each
Procedure: For all experiments and E. coli strains, cells were grown in a medium (M9gluCAAT) with M9 salts (33.7 mM Na2HPO4, 22mM KH2PO4, 8.55 mM NaCl, 9.35 mM NH4Cl), 0.2% (w/v) glucose, 0.4% (w/v) casamino acids, 1 mM MgSO4, 0.3 mM CaCl2, 1 μg/mL thiamine, and trace elements (13.4 mM ethylene-diamine-tetra-acetic-acid (EDTA), 3.1 mM FeCl3-6H2O, 0.62 mM ZnCl2, 76 μM CuCl2-2H2O, 42 μM CoCl2-2H2O, 162 μM H3BO3, 8.1 μM MnCl2-4H2O). Prior to every experiment, cells were first inoculated into M9gluCAAT and grown to stationary phase at 37°C. […]
Except for the biofilm experiments, the strains used in this study were derived from MG1655 (ATCC 47076), which was used to estimate the minimum inhibitory concentration (MIC) for all the studied peptides (or peptoids) using a microplate reader (Figure 1A). […]
To determine the minimal inhibitory concentration (MIC) of the selected AMPs against either MG1655 or ATCC 25922 E. coli strains, exponentially growing cells were diluted in fresh medium to an OD = 10^−6 (~500 cells/mL) and mixed 50:50 with titrated AMP concentrations (which were chosen to be over a range that included the MIC) in a 96-well plate (flat bottom with low evaporation lid, 3595, Corning, Arizona, USA). […] OD curves were sampled every 5 min for a total of 48 h using a microplate reader (BioTek Synergy 2, Agilent Technologies Inc., California, USA). […]

Structure (SMILES): CC[C@H](C)[C@H](NC(=O)CN)C(=O)NCC(=O)N[C@@H](C)C(=O)N[C@H](C(=O)N[C@@H](CC(C)C)C(=O)N[C@@H](CCCCN)C(=O)N[C@H](C(=O)N[C@@H](CC(C)C)C(=O)N[C@H](C(=O)N[C@H](C(=O)NCC(=O)N[C@@H](CC(C)C)C(=O)N1CCC[C@H]1C(=O)N[C@@H](C)C(=O)N[C@@H](CC(C)C)C(=O)N[C@H](C(=O)N[C@@H](CO)C(=O)N[C@@H](Cc1c[nH]c2ccccc12)C(=O)N[C@H](C(=O)N[C@@H](CCCCN)C(=O)N[C@@H](CCCNC(=N)N)C(=O)N[C@@H](CCCCN)C(=O)N[C@@H](CCCNC(=N)N)C(=O)N[C@@H](CCC(N)=O)C(=O)N[C@@H](CCC(N)=O)C(N)=O)[C@@H](C)CC)[C@@H](C)CC)[C@@H](C)O)[C@@H](C)O)C(C)C)C(C)C [Mltt, melittin]
- MIC (mode MIC): 4 µM
